# Data published in ChEMBL document CHEMBL1127794, “Structure-activity relationships of 1,3-dialkylxanthine derivatives at rat A3 adenosine receptors” (J Med Chem, 1994).
# Sequences of proteins named here, by UniProt entry; tags and fusion partners are left off.
# UniProt P28647, whole entry: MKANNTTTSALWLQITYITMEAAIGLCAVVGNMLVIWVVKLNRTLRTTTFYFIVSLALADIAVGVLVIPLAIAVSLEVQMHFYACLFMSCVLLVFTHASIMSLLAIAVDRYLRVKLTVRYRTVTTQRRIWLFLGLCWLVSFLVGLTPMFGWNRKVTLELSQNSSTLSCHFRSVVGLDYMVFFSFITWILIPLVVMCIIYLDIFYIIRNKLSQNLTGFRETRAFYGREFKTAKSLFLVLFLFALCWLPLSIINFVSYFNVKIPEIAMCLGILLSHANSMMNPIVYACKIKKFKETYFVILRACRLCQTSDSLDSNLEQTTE
# Target: Adenosine receptor A3 (Rattus norvegicus) (UniProt P28647)
# Assay: Tested for the binding affinity, for displacement of [125I]AB-MECA in membranes of CHO cells stably transfected with the rat A3-cDNA at the 10e-4 concentration (M)
# Type: cell membranes
smiles,measurement,value
Cn1c(=O)c2[nH]cnc2n(C)c1=O,inhibition,23.1%
